From patent publication US20190015361A1, “POLYTHERAPY MODULATING CATHELICIDIN GENE EXPRTESSION MODULATION FOR THE TREATMENT OF ALZHEIMER'S DISEASE AND OTHER CONDITIONS” (Maxwell Biosciences, Inc., priority 2017, published 2019)

Experiments:
SH-SY5Y cells [1] = test: MTT viability, direct exposure of SH-SY5Y cells; type: cell-based, human; conditions: 30 μM, 72 h
human microglia = test: MTT viability, direct exposure of human microglia; type: cell-based; conditions: 30 μM, 72 h
SH-SY5Y cells [2] = test: Microglia-mediated toxicity to differentiated SH-SY5Y cells (supernatant transfer, MTT); type: cell-based; conditions: microglia exposed 2 days to 30 μM peptide, supernatant transferred; after 3 days
endothelial cells = conditions: cited from earlier work

For LL-37, the “direct toxicity to SH-SY5Y cells (MTT)” value (SH-SY5Y cells [1]) was “neither Aβ nor LL-37 peptide was toxic”, the “direct toxicity to human microglia alone (MTT)” value (human microglia) was “neither Aβ nor LL-37 peptide was toxic” and the SH-SY5Y cell viability (SH-SY5Y cells [2]) was 70%. The “concentration cytotoxic to endothelial cells” value (endothelial cells; Ciornei et al. 2006) was 30 µg/mL and the “concentration cytotoxic to endothelial cells lining blood vessels” value (endothelial cells; Svensson et al. 2017) was “above 13 μg/mL”.
